Read-outs that look alike come from different tables or passages of the source.
Columns and labels:
[1] = depending on buffer conditions; cited from earlier work
[2] = system: wild-type C. neoformans H99; assay: Growth inhibition; type: cell-based, Cryptococcus neoformans; settings: SC medium, 30 °C, 48 h
[3] = system: ctr1Δctr4Δ mutant strain of C. neoformans; assay: Growth recovery of Cu-import deficient mutant in YPEG medium; type: cell-based, Cryptococcus neoformans; settings: YPEG medium without supplemental Cu, micromolar compound, 48 h
Conditional Cu [4] = type: binding
Conditional Cu [5] = type: binding; settings: pH 7.4, anaerobic
[6] = system: C. neoformans wild type, H99 cells; type: cell-based, Cryptococcus neoformans; settings: 10 μM ligand co-incubated with 10 μM CuSO4, 1 h, SC medium

| Compound | pCu(II) [1] | Minimum inhibitory concentration (MIC) ([2]; no supplemental Cu ([Cu] 0 mM)) [µM] | Minimum inhibitory concentration (MIC) ([2]; supplemental [Cu] 1 mM (CuSO4)) [µM] | restoration of growth of ctr1Δctr4Δ mutant [3] | Cu(II) log KML2 (Conditional Cu [4]; conditional, universal buffer pH 7.4, competition with PAR) | pCu(II) (Conditional Cu [4]; negative log of free [Cu] at pH 7.4, total ligand 10 μM, total Cu 1 μM) | competition for Cu(I) with BCA or ferrozine (Conditional Cu [5]) | cell-associated Cu, Fe and Zn content [6] |
| --- | --- | --- | --- | --- | --- | --- | --- | --- |
| human serum albumin: a major Cu(II) carrier protein in the blood | 12–13 |  |  |  |  |  |  |  |
| [O-][n+]1ccccc1O [PyO, pyridinol-n-oxide] |  | >100 | >100 | unable to restore growth | 13.8 ± 0.1 | 9.6 | did not compete | did not dramatically alter cellular metal content |
